The structures appear in SMILES notation.

The text below walks through data of patent US7129213B2, “Tripeptides and tripeptide derivatives for the treatment of neurodegenerative diseases” (Neurotell AG, priority 2002, dated 2006).

Turning to `NCC(=O)N[C@@H](Cc1ccccc1)C(=O)N1CCC[C@H]1C(=O)O` [H-Gly-Phe-Pro-OH], the “PAMPA classification, predicted absorption after peroral application” value was “weakly absorbed”.
